{
  "sequences": {"note": "Sequences of proteins named here, by UniProt entry; tags and fusion partners are left off.", "UniProt P34949, whole entry": "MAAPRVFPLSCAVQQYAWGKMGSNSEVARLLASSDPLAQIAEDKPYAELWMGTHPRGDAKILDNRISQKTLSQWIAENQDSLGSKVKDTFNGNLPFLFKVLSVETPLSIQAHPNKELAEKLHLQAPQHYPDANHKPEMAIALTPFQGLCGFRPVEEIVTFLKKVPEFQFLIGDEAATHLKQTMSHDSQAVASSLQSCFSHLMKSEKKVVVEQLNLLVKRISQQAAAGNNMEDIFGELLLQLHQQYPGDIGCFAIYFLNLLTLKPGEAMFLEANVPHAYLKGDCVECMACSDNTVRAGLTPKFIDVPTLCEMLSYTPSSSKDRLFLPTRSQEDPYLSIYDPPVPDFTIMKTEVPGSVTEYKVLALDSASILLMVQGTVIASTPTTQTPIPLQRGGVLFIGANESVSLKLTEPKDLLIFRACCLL"},
  "source": "PubChem BioAssay AID1216",
  "about": "(Sanford-Burnham Center for Chemical Genomics, 2008)",
  "note": "The list shows a part of the results, in another mix than the full data. The source made the active and inactive calls.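 The calls were made as follows: active = activation factor of 2 or more at 20 µM; inactive = the rest.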",
  "data": [
    {"molecular_target": "Mannose-6-phosphate isomerase (Homo sapiens) (UniProt P34949)", "experiment": "MPI activation at elevated mannose 6-phosphate – biochemical, fluorescence intensity, near-saturating mannose 6-phosphate, primary screen (AID 1216)", "conditions": "coupled PMI enzyme assay, resazurin fluorescence, 20 min; at 20 µM; hits give high values; 1 = untreated enzyme, 0 = substrate-free blank", "method_in_brief": "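Test system: human phosphomannose isomerase with PGI, G6PDH, diaphorase coupling enzymes; Amount: PMI at 15 ng/mL final; Reagent: Mannose-6-phosphate 1.0 mM (near-saturating) plus 0.22 mM NADP+; Timing: 20 min, room temperature; Technique: resorufin fluorescence at Ex 544/Em 590 nm; Dosing: 20 µM single dose.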", "values": [
      {"smiles": "COc1ccc(C(=O)NCC2(N3CCOCC3)CCCCC2)cc1OC", "activation factor": "inactive: 1.1"},
      {"smiles": "O=C(OC1CN2CCC1CC2)C1c2ccccc2C=Cc2ccccc21", "note": "(stereo not given)", "activation factor": "inactive: 1"},
      {"smiles": "N/C(=N\\O)c1c(N)no[n+]1[O-]", "activation factor": "inactive: 1.1"},
      {"smiles": "N#Cc1ccc(C(=O)NCC2(N3CCCCC3)CCCCC2)cc1", "activation factor": "inactive: 1.1"},
      {"smiles": "c1ccc(CN2CCC(Nc3ccccc3)CC2)cc1", "activation factor": "inactive: 0.8"},
      {"smiles": "Fc1ccccc1NC1CCN(Cc2ccccc2)CC1", "activation factor": "inactive: 1.1"},
      {"smiles": "CN(C)c1ccc(C(=O)NCC2(N3CCCCC3)CCCCC2)cc1", "activation factor": "inactive: 1"},
      {"smiles": "CCN1CCC(Nc2cccc(F)c2)CC1", "activation factor": "inactive: 1"},
      {"smiles": "CC(C)(C)OC(=O)N1CCC(Nc2ccccc2)CC1", "activation factor": "inactive: 0.9"},
      {"smiles": "CCOc1ncccc1C(=O)NCC1(N2CCOCC2)CCCCC1", "activation factor": "inactive: 1"},
      {"smiles": "COc1cc(OC)cc(C(=O)NCC2(N3CCOCC3)CCCCC2)c1", "activation factor": "inactive: 1.1"},
      {"smiles": "CCC(CO)(C(=O)OC1CN2CCC1CC2)c1ccccc1", "note": "(stereo not given)", "activation factor": "inactive: 1"},
      {"smiles": "COc1ccc(C(=O)NCC2(N3CCCCC3)CCCCC2)c(OC)c1OC", "activation factor": "inactive: 1.1"},
      {"smiles": "O=C(OC1CN2CCC1CC2)C1c2ccccc2Oc2ccccc21", "note": "(stereo not given)", "activation factor": "inactive: 0.9"},
      {"smiles": "CCOC(=O)N1CCC(Nc2ccc(OC)cc2)CC1", "activation factor": "inactive: 0.9"},
      {"smiles": "O=C(NCC1(N2CCOCC2)CCCCC1)c1cc2ccccc2o1", "activation factor": "inactive: 1"},
      {"smiles": "COc1ccc(NC2CCN(CCc3ccccc3)CC2)c(OC)c1", "activation factor": "inactive: 0.5"},
      {"smiles": "N#CC1(Nc2ccccc2)CCN(CCc2ccccc2)CC1", "activation factor": "inactive: 1"},
      {"smiles": "O=C(NCC1(N2CCCCC2)CCCCC1)c1cccc([N+](=O)[O-])c1", "activation factor": "inactive: 1.1"},
      {"smiles": "O=C(NCC1(N2CCOCC2)CCCCC1)c1cc(=O)[nH]c2ccccc12", "activation factor": "inactive: 1"},
      {"smiles": "COc1ccc(NC2CCN(C(=O)OC(C)(C)C)CC2)cc1", "activation factor": "inactive: 0.8"},
      {"smiles": "CN1CCN(CCOC(=O)C(O)(c2ccccc2)c2ccccc2)CC1", "activation factor": "inactive: 1.2"},
      {"smiles": "CC(C)c1ccc(NC2CCN(C(=O)OC(C)(C)C)CC2)cc1", "activation factor": "inactive: 0.7"},
      {"smiles": "CN(C)c1cccc(C(=O)NCC2(N3CCCCC3)CCCCC2)c1", "activation factor": "inactive: 0.9"},
      {"smiles": "COc1ccc(CN(CCCl)CCCl)cc1Cl", "activation factor": "inactive: 0.7"}
    ]}
  ]
}
